Source: EP0839146B1, “PIPERAZINE DERIVATIVES AND THEIR USE AS 5-HT1A ANTAGONISTS” (AMERICAN HOME PRODUCTS CORPORATION, priority 1995, dated 1997)

Biological target: α1 receptors
Assay: α1 binding affinity (procedure of Marrow et al)
Settings: read-out: α1 binding IC50

IC50: 230 nM
SMILES: COc1ccccc1N1CCN(CCN(C(=O)C2CCCCC2)c2ccccn2)CC1
